GIV-Gai inh = GIV-Galpha-i interaction inhibition. 210,000 compounds, 0.42% hits. percent of control (FP), % (no concentration beside the values). Galpha-i3/FITC-GIV peptide fluorescence polarization, 90 min; active compounds read low; scaled: aluminum fluoride 0%, vehicle 100%. AID 1224905. P08753;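 active = replicate mean at 85% of control or lower, very high polarization wells dropped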;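 note: wells of about 15 µL received 100 nL stock; the first replicate is given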
HCMV UL50-53 inh = cytomegalovirus nuclear egress complex inhibition; HTRF UL50-UL53 interaction, normalized percent inhibition; inhibition, % (no concentration beside the values); hit rate 0.15% among 190,000; AID 1918969; in the data active means inhibition above about 27%, passing the limit was not always enough
GIV-Gai FP conf = confirmation of inhibitors of GIV binding to rat Galpha-i3; fluorescence polarization, mP at 100 µM; hit rate 38% among 580; shares compounds with GIV-Gai inh; FITC-GIV peptide binding to Galphai3, fluorescence polarization; stronger effect = lower value;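 active means inhibition score of 15 or more, meaning 100 minus mean polarization as percent of control over three replicates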
GIV Gai AS conf = GIV-Galpha-i3 inhibition, AlphaScreen confirmation; shares compounds with GIV-Gai inh; AlphaScreen Galphai3-GIV binding, purified proteins, 90 min; stronger effect = lower value; AlphaScreen counts at 100 µM; hit rate 39% among 580; AID 1259351;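 active means inhibition score at or above a set limit, where the score is 100 minus the three-replicate mean percent of control signal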
The depositor's hits bear a star. Rows were chosen to be rich in hits. Some 0.43% of all compounds tested hit in one or more screens of this group.

For CCOC(=O)C1=C(C)OC2(O)c3ccccc3C(=O)C12O (stereo unspecified) the results were GIV-Gai inh 80*, HCMV UL50-53 inh -4, GIV-Gai FP conf 64 and GIV Gai AS conf 48826.
For CCOCCOC(=O)C1=C(C)NC2(O)c3ccccc3C(=O)C12O (stereo unspecified) the results were GIV-Gai inh 104.
For CCOC(=O)c1c(C)[nH]c(C)c1C(=O)CSc1nnc2oc3ccc(S(=O)(=O)N(C)C)cc3n12 the results were HCMV UL50-53 inh -3.
`O=[N+]([O-])c1ccc(S(=O)(=O)N(Cc2ccco2)CC2CCCO2)cc1` (stereo unspecified) gave GIV-Gai inh 115.
For c1ccc(COn2c3c(c4c5nonc5ccc42)CCCC3)cc1 the results were GIV-Gai inh 52*, HCMV UL50-53 inh -34, GIV-Gai FP conf 49* and GIV Gai AS conf 18180*.
`CCOC(=O)c1c(C)n(OCc2ccccc2)c2ccc3nonc3c12` gave GIV-Gai inh 99.
N#Cc1c(NC(=O)c2cc(-c3cccs3)on2)sc2c1CCC2 was read as GIV-Gai inh 101.
Screening CCCCn1c(O)c(C2=NN(C(=O)CC)C(c3ccc(Br)cc3)C2)c(=O)[nH]c1=S (stereo unspecified) returned GIV-Gai inh 97 and HCMV UL50-53 inh -27.
For CN(N)c1cc(=O)n(C)c(=O)[nH]1 the results were GIV-Gai inh 64*, HCMV UL50-53 inh -49, GIV-Gai FP conf 49* and GIV Gai AS conf 32708.
Screening Cn1c(=O)cc(N2CCCCC2)[nH]c1=O returned GIV-Gai inh 107 and HCMV UL50-53 inh -16.

The final three entries of the section above come first, to join the parts:
Screening CCCCn1c(O)c(C2=NN(C(=O)CC)C(c3ccc(Br)cc3)C2)c(=O)[nH]c1=S (stereo unspecified) returned GIV-Gai inh 97 and HCMV UL50-53 inh -27.
For CN(N)c1cc(=O)n(C)c(=O)[nH]1 the results were GIV-Gai inh 64*, HCMV UL50-53 inh -49, GIV-Gai FP conf 49* and GIV Gai AS conf 32708.
Screening Cn1c(=O)cc(N2CCCCC2)[nH]c1=O returned GIV-Gai inh 107 and HCMV UL50-53 inh -16.
Screening O=C(CSC1=NC2(CCCC2)N=C1c1ccccc1)Nc1ccccc1 returned GIV-Gai inh 100.
`O=C1/C(=C/c2ccncc2)CCC/C1=C\c1ccncc1` gave GIV-Gai inh 51*, HCMV UL50-53 inh -21, GIV-Gai FP conf 51* and GIV Gai AS conf 18754*.
Screening O=C1/C(=C/c2cccnc2)CCCC/C1=C\c1cccnc1 returned HCMV UL50-53 inh 13.
Cc1nc2nc3c(c(N4CCN(c5cccc(Cl)c5)CC4)n2n1)CCCC3 was read as GIV-Gai inh 98 and HCMV UL50-53 inh -23.
For Cc1cccc(NC(=O)NC(C)c2c(-n3cccc3)sc(C)c2C)c1C (stereo unspecified) the results were GIV-Gai inh 89, GIV-Gai FP conf 71 and GIV Gai AS conf 49525.
For Cc1ccc(NC(=O)NC(C)c2c(-n3cccc3)sc(C)c2C)cc1F (stereo unspecified) the results were GIV-Gai inh 103 and HCMV UL50-53 inh -29.
For CC1=C(C(=O)Nc2ccccc2)C(c2ccc(Cl)cc2)n2nnnc2N1 (stereo unspecified) the results were GIV-Gai inh 104 and HCMV UL50-53 inh -4.
CC(C)[C@H](NS(=O)(=O)c1ccc2c(c1)OCCO2)C(=O)N=c1sc2ccccc2n1C was read as HCMV UL50-53 inh 3.
Screening Cc1ccc(Cl)cc1N1CCN(C(=O)C2CCCN(S(=O)(=O)c3cccc4nonc34)C2)CC1 (stereo unspecified) returned GIV-Gai inh 106 and HCMV UL50-53 inh -12.
`COCCNC(=O)Nc1ccc2c(c1)nc(C)n2C` gave GIV-Gai inh 103 and HCMV UL50-53 inh 3.
For O=C(O)c1cccc(N2C(=O)/C(=C\C=C\c3ccco3)SC2=S)c1 the results were GIV-Gai inh 74*, HCMV UL50-53 inh -11, GIV-Gai FP conf 71 and GIV Gai AS conf 35403.
Screening Cc1ccc(/C=C2\SC(=S)N(C(C(=O)O)C(C)C)C2=O)cc1 (stereo unspecified) returned GIV-Gai inh 103.
Screening O=C(O)CCC(C(=O)O)N1C(=O)/C(=C/C=C/c2ccco2)SC1=S (stereo unspecified) returned GIV-Gai inh 39*, HCMV UL50-53 inh 75*, GIV-Gai FP conf 47* and GIV Gai AS conf 2132*.
CC(C)C(C(=O)O)N1C(=O)/C(=C/C=C/c2ccco2)SC1=S (stereo unspecified) was read as GIV-Gai inh 58*, HCMV UL50-53 inh 82*, GIV-Gai FP conf 54* and GIV Gai AS conf 1448*.
`O=C(O)c1cccc(N2C(=O)/C(=C/c3ccccc3)SC2=S)c1` gave HCMV UL50-53 inh -5.
`Cc1ccc(/C=C2\SC(=S)N(C(CCC(=O)O)C(=O)O)C2=O)cc1` (stereo unspecified) gave HCMV UL50-53 inh -68.
CC(C(=O)O)N1C(=O)/C(=C\c2ccco2)SC1=S (stereo unspecified) was read as HCMV UL50-53 inh -62.

Bioassay records (PubChem BioAssay)
